By UniProt entry, the sequences of proteins in these tests, tags left out. Where a name states a change or a piece, a line headed by the entry shows the natural chain unless it says otherwise.
UniProt Q92570: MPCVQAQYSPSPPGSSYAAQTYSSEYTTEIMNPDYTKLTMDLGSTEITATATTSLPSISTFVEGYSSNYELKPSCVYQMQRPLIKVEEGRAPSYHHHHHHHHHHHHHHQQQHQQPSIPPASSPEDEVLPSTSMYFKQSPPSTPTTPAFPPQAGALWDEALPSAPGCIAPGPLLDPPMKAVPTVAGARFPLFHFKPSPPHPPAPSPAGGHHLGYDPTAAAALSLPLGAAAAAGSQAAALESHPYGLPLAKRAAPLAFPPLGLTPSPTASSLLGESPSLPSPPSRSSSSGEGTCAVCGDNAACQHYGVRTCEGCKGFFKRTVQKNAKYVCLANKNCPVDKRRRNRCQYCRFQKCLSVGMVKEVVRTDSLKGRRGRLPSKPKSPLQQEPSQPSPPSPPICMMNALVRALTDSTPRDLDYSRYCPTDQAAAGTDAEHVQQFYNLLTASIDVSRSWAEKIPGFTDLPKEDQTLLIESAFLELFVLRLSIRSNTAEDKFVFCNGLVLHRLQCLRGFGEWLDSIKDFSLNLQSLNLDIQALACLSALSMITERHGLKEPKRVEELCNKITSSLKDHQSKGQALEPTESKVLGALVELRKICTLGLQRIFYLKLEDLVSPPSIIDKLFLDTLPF

According to ChEMBL document CHEMBL5523770 (J Med Chem, 2024):

Target: Nuclear receptor subfamily 4 group A member 3 (Homo sapiens, UniProt Q92570)
Assay: Inverse agonist activity at human NOR-1 (393 to 626 residues) transfected in HEK293T cells incubated for 16 hrs by firefly/renilla based Dual-Glo luciferase assay
Format: cell-based

O=C(O)Cc1nc(-c2ccccc2)c(-c2ccccc2)o1
IC50: 10 µM
